Conditions: human liver microsomes, 1 h treatment

- fraction remaining after microsome treatment: ~ half
Structure (SMILES): CC(C)N(CCCNC(=O)Nc1ccc(C(C)(C)C)cc1)CC1=C[C@@H](n2cnc3c(N)ncnc32)[C@H](O)[C@@H]1O [compound 7]
